From patent US12606546B2, “Small molecule inhibitors of calcium channel activity and uses thereof” (Arizona Board of Regents on Behalf of the University of …, priority 2020, dated 2026)

Assays:
[1] = target: low voltage activated (LVA) T-type calcium channels (Rattus norvegicus, UniProt Q9EQ60); test: Fura-2AM calcium imaging, 40 mM KCl-evoked Ca2+ influx in DRG neurons; assay type: cell-based; details: 20 μM, maximum with overnight treatment
rats = test: Rotarod performance test; details: intrathecal, over 300 minutes, cutoff 180 seconds (vehicle 172±7.3)
[2] = test system: Madin-Darby Canine Kidney (MDCK) cells; test: Cytotoxicity in MDCK cells; details: read-out: cytotoxic concentration, CC50
[3] = test system: adenocarcinomic human alveolar basal epithelial (A549) cells; test: Cytotoxicity in A549 cells; details: read-out: cytotoxic concentration, CC50
naive rats = test: Elevated plus maze (EPM) test; details: 2 μg/5 μL i.t., 1 hour post injection vs vehicle
hERG channel = hERG channel (Homo sapiens, UniProt Q12809); test: hERG two-electrode voltage clamp in oocytes; details: 10 μM
[4] = test system: calcitonin gene related peptide (CGRP) release; test: KCl-evoked CGRP release from lumbar spinal cord; details: 20 μM, 90 mM KCl
[5] = test system: substantia gelatinosa neurons; test: Spontaneous EPSC recording in spinal cord slices; details: 20 μM
DRG sensory neurons = test: Constellation pharmacology of DRG sensory neurons
paclitaxel-treated rats = test: Paclitaxel-induced neuropathy, mechanical allodynia; details: 2 μg/5 μL intrathecal; at two hours post-injection, lasting at least two hours
[6] = test system: tetrodotoxin-sensitive or -resistant voltage-gated sodium currents; test: Whole-cell patch clamp of Na+ currents in DRG neurons; details: 20 μM overnight, TTX-sensitive or -resistant
SNL rats = test: Spinal nerve ligation (SNL) model, mechanical allodynia; details: 2 μg/5 μL intrathecal
[7] = test system: high voltage activated calcium channels; test: Fura-2AM calcium imaging, 90 mM KCl-evoked Ca2+ influx in DRG neurons; details: 20 μM overnight, rat DRG neurons, relative to 0.01% DMSO
T-type Ca2+ channels = T-type Ca2+ channels (Rattus norvegicus, UniProt Q9EQ60); test: Whole-cell patch clamp of T-type Ca2+ currents in DRG sensory neurons
L-type (CaV1.x) = test: Whole-cell patch clamp, pharmacologically isolated L-type currents in DRG neurons; details: 20 μM applied overnight
N-type (CaV2.2) = N-type (CaV2.2) (Rattus norvegicus, UniProt Q02294); test: Whole-cell patch clamp, pharmacologically isolated N-type currents in DRG neurons; details: 20 μM applied overnight
R-type (CaV2.3) = R-type (CaV2.3) (Rattus norvegicus, UniProt Q07652); test: Whole-cell patch clamp, pharmacologically isolated R-type currents in DRG neurons; details: 20 μM applied overnight
[8] = test system: CaV3.1, CaV3.2 or CaV3.3 T-type Ca2+ channel subunits; test: 40 mM KCl-evoked Ca2+ influx in DRG neurons after siRNA knockdown of CaV3 isoforms
P/Q-type (CaV2.1) = P/Q-type (CaV2.1) (Rattus norvegicus, UniProt P54282); test: Whole-cell patch clamp, pharmacologically isolated P/Q-type currents in DRG neurons; details: 20 μM applied overnight

In the case of `C[C@@H](c1ccccc1)n1nnnc1[C@@H](c1ccsc1)N1CCC(n2c(=O)[nH]c3ccccc32)CC1`, the “time of application after which inhibition was observed” value [1] is reported as “at least 30 minutes”, the “time on the rotarod (average)” value (rats) is reported as 170 ± 9.6 s and the CC50 [2] is reported as greater than 100 µM. For the same compound, the CC50 [3] was greater than 100 µM, the “anxiety index (EPM)” value (naive rats) was “no significant change in anxiety index” and the “inhibition of hERG channel” value (hERG channel) was “did not inhibit”. The “KCl-evoked CGRP release from spinal cords” value [4] was “inhibits KCl-evoked CGRP release”, the “spontaneous EPSC amplitude” value ([5]; substantia gelatinosa neurons) was “no significant decrease” and the sEPSC frequency ([5]; substantia gelatinosa neurons (DMSO 1.96±0.21 Hz)) was 1.26±0.17 Hz. For the same compound, the “AUC of Ca2+ response to capsaicin stimulation” value (DRG sensory neurons; 20 μM overnight vs vehicle) was “decreased”, the “number of functional cell subclasses” value (DRG sensory neurons; 20 μM overnight vs vehicle) was “more functional subclasses were present” and the “percent of cells responding to ATP” value (DRG sensory neurons; 20 μM overnight vs vehicle) was “increased sensitivity”. For the same compound, the “percent of cells responding to capsaicin” value (DRG sensory neurons; 20 μM overnight vs vehicle) was “decreased sensitivity”, the “KCl-evoked Ca2+ response in neurons that responded to ATP and menthol” value (DRG sensory neurons; 20 μM overnight, 90 mM KCl) was “significantly decreased” and the “mechanical allodynia, paclitaxel” value (paclitaxel-treated rats) was “reversal of mechanical allodynia”. The “effect on voltage-gated sodium currents” value [6] was “no effects”, the “duration of increase of PWTs, SNL” value (SNL rats) was 2 h and the “paw withdrawal thresholds (mechanical allodynia), SNL” value (SNL rats; 7 days post injury) was “significantly increased PWTs”. For the same compound, the “inhibition of Ca2+ influx when DRGs were depolarized with 90 mM KCl” value [7] was 33.9±4.0%, the “effect of acute application on T-type currents” value (T-type Ca2+ channels; acute (<10 min), 20 μM) was “no inhibition of T-type currents” and the “effect on T-type channel gating properties” value (T-type Ca2+ channels; overnight treatment) was “did not alter the channel gating properties”. The “effect on L-type (CaV1.x) current” value (L-type (CaV1.x)) was “had no effect”, the “effect on N-type (CaV2.2) current” value (N-type (CaV2.2)) was “had no effect” and the “effect on R-type (CaV2.3) current” value (R-type (CaV2.3)) was “had no effect”. For the same compound, the “inhibition of 40 mM KCl evoked Ca2+ influx” value ([8]; knock down of CaV3.2, 20 μM overnight) was “failed to inhibit”, the “inhibition of 40 mM KCl evoked Ca2+ influx” value ([8]; knockdown of CaV3.1, 20 μM overnight) was “significant inhibition” and the “inhibition of 40 mM KCl evoked Ca2+ influx” value ([8]; knockdown of CaV3.3, 20 μM overnight) was “significant inhibition”. For the same compound, the “inhibition of 40 mM KCl evoked Ca2+ influx” value ([8]; scramble siRNA-transfected cells, 20 μM overnight) was 53% and the “effect on P/Q-type (CaV2.1) current” value (P/Q-type (CaV2.1)) was “had no effect”.
